Screening data (PubChem BioAssay)
This is a sample that favours compounds with a hit; in the whole collection about 2.1% have one here.
SMARCA2 activ = activators of SMARCA2 function; MG213 cells, MMTV-luciferase reporter, dexamethasone, overnight; activation, % at 9.1 µM; 370,000 compounds, 1% hits; in the data active means activation above about 7.8%;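 further: 0% = vehicle wells and 100% = reference activator wells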
GSIS activator = GLuc luminescence reporter in INS-1E cells, primary screen for activators of glucose-dependent secretion of insulin; INS-1E GLuc reporter insulin secretion, 2-3 h; AID 743287; 370,000 compounds, 0.61% hits; activation, % at 16.6 µM;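 active means lowest replicate activation of at least 40%, so every replicate reaches that level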;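 further: 0% = median of neutral control wells and 100% = median of IBMX positive control wells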
PDI turbidity = inhibitors of human protein disulfide isomerase. PDI insulin aggregation turbidity, A650, 90 min. inhibition, % at 10 µM. 350,000 compounds, 0.052% hits. P07237. AID 588391;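 active means mean inhibition across replicates of 30% or more, whatever share of single replicates reach that level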
ERp5 block = inhibitors of human ERp5 | inhibition, % at 9.99 µM | ERp5 insulin aggregation, absorbance 650 nm, 90 min | 350,000 compounds, 0.05% hits | Q15084;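 active means mean replicate inhibition above about 25%, with every replicate also reaching it, limit read from the data, passing the limit was not always enough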
UUG fidelity = yeast start codon fidelity modulation | S. cerevisiae UUG-firefly luciferase reporter, luminescence/redox ratio | activity score, % at 18.7 µM | 0.13% of 350,000 active | AID 602363;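 active means replicate mean at a twofold rise or more, about +100% in these data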;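 further: firefly luciferase made from a UUG start codon reports start codon fidelity; reporter light over untreated wells divided by growth signal over untreated wells; some hits fall short of that in this replicate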
NR1D1 modulator = modulates human Rev-erb alpha binding to DNA | P20393 | Rev-erbα–FITC-DNA binding, fluorescence polarization, 90 min | activity, % at 10 µM | 370,000 compounds, 0.79% hits | AID 1259318;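 active means activity above about 14%, limit read from the data; passing the limit was not always enough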;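 further: 0% = DMSO wells with 35 nM protein and 100% = DMSO wells with 750 nM protein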
Active calls of the source: *; x = no result given.

Each structure is followed by: SMARCA2 activ	GSIS activator	PDI turbidity	ERp5 block	UUG fidelity	NR1D1 modulator
- C[C@H](C(=O)N(C)C[C@@H]1OCc2ccccc2-c2c(n(C)c3ccccc23)C(=O)N([C@H](C)CO)C[C@@H]1C)c1ccccc1
→ x	2.0	x	x	x	x
- Cc1noc(C)c1S(=O)(=O)Nc1ccc2c(c1)C(=O)N([C@@H](C)CO)C[C@H](C)[C@H](CN(C)S(=O)(=O)c1ccccc1)OCCCC[C@@H](C)O2
→ x	-10.6	x	0.4	-6.2	x
- O=C(Nc1ccc(Cl)cc1)N1C[C@H]2[C@@H](c3ccccc31)[C@H](CO)N2C(=O)c1cccnc1
→ x	-21.0	x	2.7	-6.7	x
- COC(=O)C1=C(C)N(Cc2cccc(C(F)(F)F)c2)C(=NCc2ccc(C(F)(F)F)cc2)NC1c1ccccc1 (stereo not drawn)
→ -3.2	501.0*	x	-0.1	x	-2.4
- COC(=O)C1=C(C)N(C)C(=NCc2cccc(C(F)(F)F)c2)NC1c1ccc(C(F)(F)F)cc1 (stereo not drawn)
→ -2.4	45.2*	x	-1.5	x	-4.5
- COC(=O)C1=C(C)N(C)C(=NCc2cccc(C(F)(F)F)c2)NC1c1ccccc1 (stereo not drawn)
→ -1.4	-24.0	x	0.0	x	0.1
- COC(=O)C1=C(C)N(Cc2ccccc2)C(=NCc2cccc(C(F)(F)F)c2)N[C@H]1c1cccc(C(F)(F)F)c1
→ x	x	0.8	x	-0.6	x
- COCC(=O)N1CC(=O)N2[C@H](C1)[C@@H](c1ccc(-c3cccnc3)cc1)[C@@H]2CO
→ x	11.1	x	x	x	x
- Cc1noc(C)c1NC(=O)Nc1ccc2c(c1)C(=O)N([C@@H](C)CO)C[C@H](C)[C@@H](CN(C)S(=O)(=O)c1cn(C)cn1)OCCCC[C@H](C)O2
→ x	9.8	x	-2.1	-2.9	x
- C[C@@H]1CCCCO[C@H](CN(C)C(=O)CCCN(C)C)[C@H](C)CN([C@@H](C)CO)C(=O)c2cc(NC(=O)Nc3cccc4ccccc34)ccc2O1
→ x	-5.9	x	-6.2	10.7	x
- COc1ccc(NC(=O)Nc2ccc3c(c2)C(=O)N([C@@H](C)CO)C[C@@H](C)[C@H](CN(C)S(=O)(=O)c2cccs2)OCCCC[C@H](C)O3)cc1
→ x	1.3	x	2.4	-7.3	x
- C=C(C)CN1CCN(c2ccc(N3C(=O)CCCC3=O)cc2[N+](=O)[O-])CC1
→ -2.1	49.6*	3.4	0.1	-19.9	-3.8
- COc1ccccc1N1CCN(c2ccc(N3C(=O)CCC3=O)cc2[N+](=O)[O-])CC1
→ 4.5	-9.5	0.3	4.7	-10.8	1.8
- Cc1cc(/C=C2\SC(=S)N(C)C2=O)c(C)n1-c1ccc(O)cc1
→ -9.4	9.4	74.8*	4.8	x	13.3
- C[C@H](CO)N1C[C@H](C)[C@H](CN(C)C(=O)c2cccnc2)Oc2ncc(C3=CCCCC3)cc2C1=O
→ x	5.3	x	22.3	19.6	x
- O=C(O)C(=Cc1ccccc1)Cc1ccccc1
→ -2.2	41.4*	-4.1	-7.8	-0.8	2.5
- CC(C)NC(=O)N(C)C[C@@H]1Oc2ccc(NC(=O)CCCCCC(=O)Nc3ccccc3N)cc2CC(=O)N([C@H](C)CO)C[C@@H]1C
→ x	6.0	x	-4.7	0.2	x
- C[C@@H]1CCCCO[C@@H](CN(C)CC2CCCCC2)[C@H](C)CN([C@@H](C)CO)C(=O)c2cc(NS(=O)(=O)c3ccccc3)ccc2O1
→ x	-3.8	x	-0.1	24.6	x
- COc1ccccc1OCCOc1ccc(/C=C2/C(=N)N3OC(C)=CC3=NC2=O)cc1OC
→ -0.1	286.8*	6.5	x	-16.3	11.3
- CCCNC(=O)Nc1ccc2c(c1)C(=O)N(C)C[C@H](OC)[C@@H](C)CN[C@@H](C)CO2
→ x	12.8	x	-4.0	x	x
- CCN(CC)CCC=C(c1cccs1)c1cccs1
→ 7.9*	-7.9	-2.1	-1.1	-3.6	-9.2
- CCN(CC)CCCNC(=O)/C(=C\c1cccn1C)NC(=O)c1cccs1
→ -2.2	-2.2	-1.6	x	x	-1.3
- O=c1[nH]c(C(F)(F)F)nc2c1nc1n2CCC1
→ 2.5	x	-6.3	0.4	2.9	-0.6
- O=C1CNC(=O)c2c(nc3n2CCC3)N1
→ 7.8*	28.7	3.7	0.2	-2.6	-1.3
- O=C(Cc1c[nH]c2ccccc12)N[C@@H](Cc1c[nH]c2ccccc12)C(=O)O
→ 1.6	52.8*	0.4	1.8	5.9	5.1
- CCc1nc(SCC(=O)c2ccccc2)c2c(=O)n(C)c(=O)n(C)c2n1
→ -3.2	40.7*	4.1	1.0	x	-4.8
- CN(C)C(=O)C[C@@H]1CC[C@H]2[C@@H](COC[C@@H](O)CN2S(=O)(=O)c2ccccc2Cl)O1
→ x	20.3	x	-0.1	-11.6	x
- CC1=CC(c2ccccc2)n2nc(NC(=O)CCC(=O)O)nc2N1 (stereo not drawn)
→ 4.3	65.5*	2.7	-0.7	-32.3	3.7
- C[C@@H]1CN([C@H](C)CO)C(=O)c2cc(-c3cccnc3)cnc2O[C@H]1CN(C)C(=O)C1CCOCC1
→ x	17.0	x	-4.3	-2.2	x
- O=C(Nc1nc2ccccc2s1)c1c(F)cccc1Cl
→ 0.3	1.3	8.8	1.2	-22.2	-2.1
- Cn1cc(Cl)c(C(=O)Nc2nc3ccccc3s2)n1
→ 7.9*	x	-0.8	x	-20.1	2.0
- Cc1cc(-c2ccc(Cl)cc2)n2nc(C)cc2n1
→ -0.5	80.1*	-2.5	4.2	-3.1	1.9
- Cc1cc(C)n2nc(C)c(-c3ccc(Cl)cc3)c2n1
→ 1.2	-0.8	0.7	4.6	-11.9	-4.7
- Cc1cc(-c2ccc(Br)cc2)n2nc(C)cc2n1
→ -4.0	42.6*	10.8	-1.3	-15.0	-2.6
- Cc1ccc(-c2cc3nc(-c4ccc(Br)cc4)cc(N)n3n2)cc1
→ -0.9	-4.5	-11.2	x	-15.7	9.9
- COc1ccc(NC(=O)Nc2ccc3c(c2)C(=O)N([C@@H](C)CO)C[C@@H](C)[C@H](CN(C)Cc2ccc(C(=O)O)cc2)OCCCC[C@@H](C)O3)cc1
→ x	7.3	x	10.1	2.4	x
- Cc1noc(C)c1NC(=O)Nc1cccc2c1O[C@@H](CN(C)Cc1ccc(C(F)(F)F)cc1)[C@H](C)CN([C@@H](C)CO)C2=O
→ x	-8.7	x	2.9	39.7	x
- Cc1cccc(N2C(=O)C(Cl)=C(N3CCOCC3)C2=O)c1
→ -4.0	4.0	-0.8	1.2	-13.2	-0.9
- O=C1C(Cl)=C(N2CCOCC2)C(=O)N1c1cccc(Cl)c1
→ 4.6	44.7*	-6.3	x	-12.3	-1.9
- CCN(c1ccccc1)S(=O)(=O)c1ccc(OC)c(NC(=O)c2c(C)noc2C)c1
→ -3.5	-3.3	1.5	27.4*	-4.3	1.6
- CCN(c1ccccc1)S(=O)(=O)c1ccc(OC)c(NC(=O)c2cc(Cl)ccn2)c1
→ 1.0	-1.5	-6.1	-12.5	x	3.4
- C[C@@H](NC(=O)C[C@@H]1CC[C@H](NC(=O)C2CC2)[C@H](CO)O1)c1ccccc1
→ x	12.3	x	1.5	-13.8	x
- Cc1ccc2nc(-c3ccc(NC(=O)CCN4C(=O)c5ccccc5C4=O)cc3)sc2c1
→ 2.0	x	-35.9	0.1	-21.9	-2.7
- Cc1ccc(C2(C)NC(=O)N(CC(=O)Nc3ccc(-c4nc5ccc(C)cc5s4)cc3)C2=O)cc1 (stereo not drawn)
→ 4.2	43.8*	7.2	12.8	-26.6	6.5
